Literature values as cited in patent publication US9120744B2, “Plasminogen activator inhibitor-1 inhibitors and methods of use thereof to modulate lipid metabolism” (THE REGENTS OF THE UNIVERSITY OF MICHIGAN, priority 2007, dated 2015).

By UniProt entry, the sequences of proteins in these tests, tags left out. Residues count along the entry.
UniProt P05121, 24-402, species assumed: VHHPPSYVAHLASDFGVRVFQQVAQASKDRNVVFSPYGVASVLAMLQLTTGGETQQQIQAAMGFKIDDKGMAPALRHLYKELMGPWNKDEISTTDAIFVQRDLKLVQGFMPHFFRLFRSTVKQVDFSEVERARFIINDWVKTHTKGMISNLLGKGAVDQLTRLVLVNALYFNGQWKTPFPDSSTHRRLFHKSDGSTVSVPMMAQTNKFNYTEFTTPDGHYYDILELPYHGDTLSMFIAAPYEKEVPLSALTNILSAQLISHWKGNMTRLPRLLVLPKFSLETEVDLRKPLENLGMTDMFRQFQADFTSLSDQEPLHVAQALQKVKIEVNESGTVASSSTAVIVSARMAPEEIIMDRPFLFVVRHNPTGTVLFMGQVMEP

Target: PAI-1 (Homo sapiens (Human), UniProt P05121)
Details: read-out: affinity for PAI-1; cited from earlier work

For `O=C(O)C(=O)c1cn(Cc2ccccc2)c2ccc(-c3ccc(OC(F)(F)F)cc3)cc12` [PAI-039, tiplaxtinin], the Kd is given as 10 to 20 µM.
